Results on one molecule are retold here after article PMC10296094, “K-Ras Binds Calmodulin-Related Centrin1 with Potential Implications for K-Ras Driven Cancer Cell Stemness” (Cancers, 2023).

Sequences of proteins named here, by UniProt entry; tags and fusion partners are left off.
UniProt Q12798, whole entry: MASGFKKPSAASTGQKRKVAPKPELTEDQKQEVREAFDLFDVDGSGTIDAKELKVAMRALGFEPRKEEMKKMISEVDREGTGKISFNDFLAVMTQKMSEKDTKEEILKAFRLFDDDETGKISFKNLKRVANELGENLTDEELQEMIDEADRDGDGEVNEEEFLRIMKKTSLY

In assay [1] the target is centrin1 (Homo sapiens, UniProt Q12798). In words: Fluorescence anisotropy competition: displacement of F-Sfi1 from centrin1 by CaM inhibitors. The class given is binding. Conditions: read-out: Centrin1 Mean Kd (Repeat Values); 100 nM F-Sfi1 and 250 nM His-centrin1, overnight at RT; Kd converted from IC50. As for the experimental part:
The Sfi1 peptide was derived from 670-REVAA-RESQH-NRQLL-RGALR-RWK-692 of human Sfi1 and the fluorescein was attached to the native C-terminal Lys. Sfi1 peptide titration was performed in a buffer composed of 10 mM HEPES pH 7.4, 100 mM CaCl2, and 0.005% v/v Tween 20. For binding, to a 2-fold dilution series of centrin1, 100 nM of Sfi1 peptide was added, and the reaction mix was incubated for 45 min at RT before anisotropy measurements. For measuring the IC50 of inhibitors to centrin1, to the 3-fold dilution series of inhibitors in the assay buffer, a complex of 100 nM fluorescein labelled Sfi1 peptide and 250 nM His-centrin1 was added in 20 µL volume in a 384-well plate. The fluorescence anisotropy was measured after overnight incubation at RT.
The fluorescence anisotropy was measured on a Clariostar (BMG Labtech, Ortenberg, Germany) plate reader using the fluorescence intensity signal recorded from vertical (Iv)- and horizontal (Ih)-polarised light using a fluorescence polarisation module (λexcitation 482 ± 8 nm and λemission 530 ± 20 nm). Fluorescence anisotropy was calculated from the measured fluorescence intensities according to r=Iv−GλIh/Iv+2GλIh, where r is the fluorescence anisotropy value and Iv and Ih are the fluorescence emission intensities detected with vertical and horizontal polarisation, respectively. […]
For orientation: In fluorescence polarisation assays a small probe gives low polarisation when free and higher when bound to something large.

Assay [2] concerns the target K-RasG12V/centrin1 (Homo sapiens, UniProt Q12798). In words: Cellular BRET Rluc8-K-RasG12V/GFP2-centrin1 in HEK293-ebna cells. The class given is cell-based.
The target of assay [3] is CaM. Conditions: read-out: CaM Kd (References); F-PMCA peptide as probe; cited from earlier work.

As to `CC(C)c1ccc2cc(C(F)(F)F)c(=O)c3c(N4CCCCC4)c(C=O)c(c1)c23`, the Kd in assay [1] was 900 nM; in assay [3], 870 nM. In assay [2] (ophiobolin A 2.5 µM, calmidazolium 10 µM, calmirasone1 20 µM, 24 h, n = 3), the “effect on BRETtop of K-RasG12V/centrin1” value was “lowered”. In addition, the IC50 in assay [2] (read-out: IC50, inhibition of K-RasG12V/centrin1 BRET interaction, HEK293-ebna, donor/acceptor plasmid ratio 1/19, 24 h treatment, n = 2) came to 41600 nM.

The Kd is the concentration at which binding is half-saturated.
